Experimental data: ChEMBL document CHEMBL3390842 (Medchemcomm, 2012)

The chains behind the UniProt entries cited, without tags or fusion partners. Where a name states a change or a piece, a line headed by the entry shows the natural chain unless it says otherwise.
UniProt Q9HC97: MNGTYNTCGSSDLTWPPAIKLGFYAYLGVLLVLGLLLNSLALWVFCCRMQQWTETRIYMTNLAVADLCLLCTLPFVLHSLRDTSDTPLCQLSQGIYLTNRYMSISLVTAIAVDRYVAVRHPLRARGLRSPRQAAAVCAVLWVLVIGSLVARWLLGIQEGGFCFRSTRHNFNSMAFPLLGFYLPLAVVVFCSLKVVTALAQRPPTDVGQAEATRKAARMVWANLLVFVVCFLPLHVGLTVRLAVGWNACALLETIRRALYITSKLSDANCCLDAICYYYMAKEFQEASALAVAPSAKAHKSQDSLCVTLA

Assays:
[1] = target: T1, G-protein coupled receptor 35 (Homo sapiens, UniProt Q9HC97); settings: u2os
[2] = target: T1, G-protein coupled receptor 35; settings: ht-29

SMILES | EC50 [1] | EC50 [2]
Cc1cc([N+](=O)[O-])cc([N+](=O)[O-])c1O | 81.1 µM | 6.91 µM
O=[N+]([O-])c1cc(Cl)c(O)c([N+](=O)[O-])c1 | 41.7 µM | 5.45 µM
O=[N+]([O-])c1ccc([N+](=O)[O-])c(O)c1 | – | 52.6 µM
O=[N+]([O-])c1cc([N+](=O)[O-])c(Cl)c(Cl)c1O | 24.2 µM | 1.39 µM
Cc1cc([N+](=O)[O-])c(O)c([N+](=O)[O-])c1 | 36.4 µM | 5.27 µM
O=[N+]([O-])c1cccc(O)c1[N+](=O)[O-] | – | 58.5 µM
CC(C)(c1cc([N+](=O)[O-])c(O)c([N+](=O)[O-])c1)c1cc([N+](=O)[O-])c(O)c([N+](=O)[O-])c1 | 29.2 µM | 2.35 µM
O=[N+]([O-])c1cc(C(=C(Cl)Cl)c2cc([N+](=O)[O-])c(O)c([N+](=O)[O-])c2)cc([N+](=O)[O-])c1O | 2.12 µM | 0.006 µM
